{"sequences": {"note": "Protein sequences, listed by entry. Tags and fused reporters are not part of them.", "UniProt P97612, whole entry": "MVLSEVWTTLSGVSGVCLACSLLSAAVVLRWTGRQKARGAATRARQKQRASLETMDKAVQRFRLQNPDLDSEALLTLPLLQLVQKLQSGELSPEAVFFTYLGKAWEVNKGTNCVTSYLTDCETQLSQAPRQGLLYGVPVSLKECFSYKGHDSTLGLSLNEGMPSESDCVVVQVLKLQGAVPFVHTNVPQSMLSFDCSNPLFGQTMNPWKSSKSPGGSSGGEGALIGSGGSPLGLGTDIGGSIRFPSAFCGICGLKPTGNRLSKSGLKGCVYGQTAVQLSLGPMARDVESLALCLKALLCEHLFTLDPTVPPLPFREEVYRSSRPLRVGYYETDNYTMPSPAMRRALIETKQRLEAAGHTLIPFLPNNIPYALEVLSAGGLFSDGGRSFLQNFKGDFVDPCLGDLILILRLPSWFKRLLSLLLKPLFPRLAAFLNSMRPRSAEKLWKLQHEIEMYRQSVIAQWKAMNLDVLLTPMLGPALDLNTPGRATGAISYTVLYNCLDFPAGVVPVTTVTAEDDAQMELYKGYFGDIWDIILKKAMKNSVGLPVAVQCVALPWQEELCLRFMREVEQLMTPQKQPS"}, "source": "patent US8598202B2", "about": "“Aryl-hydroxyethylamino-pyrimidines and triazines as modulators of fatty acid amide hydrolase” (Janssen Pharmaceutica NV, priority 2008, dated 2013)", "note": "Counter-ions that a name gives are not always drawn.", "data": [{"target": "Rat FAAH-1 (Rattus norvegicus, UniProt P97612)", "assay": "Assay Method 2: rat FAAH-1 assay, 3H-anandamide hydrolysis in homogenate of SK-N-MC cells transfected with rat FAAH", "conditions": "Assay 2 IC50 (μM)", "units": {"IC50": "µM"}, "values": [{"smiles": "O[C@@H](CNc1cc(-c2ccc(OCC(F)(F)F)c(F)c2)ncn1)c1ccccc1", "note": "[Example 178, (1R)-2-({6-[3-Fluoro-4-(2,2,2-trifluoroethoxy)phenyl]pyrimidin-4-yl}amino)-1-phenylethanol trifluoroacetic acid salt]", "IC50": 0.07}, {"smiles": "OC(CNc1cc(-c2ccc(C(F)(F)F)cc2)ncn1)c1ccccc1", "note": "(stereo not drawn) [Example 4, 1-Phenyl-2-([6-[4-(trifluoromethyl)phenyl]pyrimidin-4-yl]amino)ethanol trifluoroacetic acid salt]", "IC50": 0.1}, {"smiles": "O[C@@H](CNc1cc(-c2ccc(OC(F)(F)F)c(F)c2)ncn1)c1ccccc1", "note": "[Example 29, (1R)-2-({6-[3-Fluoro-4-(trifluoromethoxy)phenyl]pyrimidin-4-yl}amino)-1-phenylethanol trifluoroacetic acid salt]", "IC50": 0.026}, {"smiles": "O[C@@H](CNc1cc(-c2ccc(C(F)(F)F)c(Cl)c2)ncn1)c1ccc(F)c(F)c1", "note": "[Example 144, (1R)-2-[6-(3-Chloro-4-trifluoromethyl-phenyl)-pyrimidin-4-ylamino]-1-(3,4-difluoro-phenyl)-ethanol]", "IC50": 0.003}, {"smiles": "OC(CNc1cc(-c2ccc(C(F)(F)F)c(Cl)c2)ncn1)c1ccc(F)c(F)c1", "note": "(stereo not drawn) [Example 132, 2-[6-(3-Chloro-4-trifluoromethyl-phenyl)-pyrimidin-4-ylamino]-1-(3,4-difluoro-phenyl)-ethanol trifluoroacetic acid salt]", "IC50": 0.015}, {"smiles": "O[C@@H](CNc1cc(-c2ccc(C(F)(F)F)cc2)ncn1)c1ccccc1", "note": "[Example 15, (1R)-1-Phenyl-2-({6-[4-(trifluoromethyl)phenyl]pyrimidin-4-yl}amino)ethanol]", "IC50": 0.068}, {"smiles": "CC(=O)c1ccc(-c2cc(NC[C@H](O)c3ccccc3)ncn2)cc1F", "note": "[Example 51, 1-[2-Fluoro-4-(6-{[(2R)-2-hydroxy-2-phenylethyl]amino}pyrimidin-4-yl)phenyl]ethanone trifluoroacetic acid salt]", "IC50": 0.007}, {"smiles": "O[C@@H](CNc1cc(-c2ccc(Cl)c(C(F)(F)F)c2)ncn1)c1ccccc1", "note": "[Example 28, (1R)-2-({6-[4-Chloro-3-(trifluoromethyl)phenyl]pyrimidin-4-yl}amino)-1-phenylethanol trifluoroacetic acid salt]", "IC50": 0.064}, {"smiles": "O[C@H](CNc1cc(-c2ccc(C(F)(F)F)c(Cl)c2)ncn1)c1ccc(F)c(F)c1", "note": "[Example 143, (1S)-2-[6-(3-Chloro-4-trifluoromethyl-phenyl)-Pyrimidin-4-ylamino]-1-(3,4-difluoro-phenyl)-ethanol]", "IC50": 4}]}]}
